Data as given in PubChem BioAssay AID1434 (Sanford-Burnham Center for Chemical Genomics, 2008).
The entries are a selection whose mix differs from that of the whole data set. Active and inactive are the calls of the source.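 The calls were made as follows: active = mean inhibition across duplicate retests at 20 µM reaching about 50% (limit read from the data); inactive = the rest, inconclusive results apart.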

Chains of the proteins cited; added tags and fusions are not shown.
UniProt Q01196, whole entry, looked up: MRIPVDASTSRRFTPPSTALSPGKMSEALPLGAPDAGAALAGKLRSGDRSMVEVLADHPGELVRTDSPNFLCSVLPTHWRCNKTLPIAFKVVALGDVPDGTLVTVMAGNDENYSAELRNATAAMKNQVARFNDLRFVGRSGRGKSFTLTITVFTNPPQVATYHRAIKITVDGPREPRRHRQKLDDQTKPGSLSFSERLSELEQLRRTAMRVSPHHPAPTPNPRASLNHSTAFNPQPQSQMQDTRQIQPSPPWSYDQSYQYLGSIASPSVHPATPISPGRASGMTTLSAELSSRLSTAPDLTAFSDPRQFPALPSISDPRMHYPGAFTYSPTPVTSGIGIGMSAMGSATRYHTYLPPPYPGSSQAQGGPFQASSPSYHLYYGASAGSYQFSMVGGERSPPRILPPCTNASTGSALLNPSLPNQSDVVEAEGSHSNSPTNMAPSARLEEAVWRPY
UniProt Q13951, whole entry, looked up: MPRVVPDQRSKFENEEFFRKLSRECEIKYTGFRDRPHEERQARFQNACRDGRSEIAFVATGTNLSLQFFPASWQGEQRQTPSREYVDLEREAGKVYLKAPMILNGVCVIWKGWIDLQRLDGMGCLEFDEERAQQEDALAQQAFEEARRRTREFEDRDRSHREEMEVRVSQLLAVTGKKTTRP

What follows are compounds tested against Runt-related transcription factor 1 (Homo sapiens) + Core-binding factor subunit beta (Homo sapiens) (UniProt Q01196+Q13951) (assay: inhibitors of RUNX1 Runt–CBFb-SMMHC binding, primary screen, biochemical, FRET, Cerulean-Runt, Venus-CBFb-SMMHC, uHTS (AID 1434;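 also: 0% = DMSO wells and 100% = wells with excess untagged CBFb-SMMHC; inhibitors lower the FRET ratio by blocking Runt binding to CBFb-SMMHC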)). Conditions: Cerulean-Runt/Venus-CBFb-SMMHC FRET ratio 530/480, 1 h; at 20 µM; hits give high values.
CCC(C)N(CC(C)C)C(=S)SC(NC(C)=O)C(Cl)(Cl)Cl (stereo not given) was tested, and the inhibition was inactive: 3.7%. With CCOC(=O)c1ccc(NC(=O)C(C)(CCl)SC)cc1 (stereo not given) the inhibition was inactive: 0.4%. With O=C(COc1ccccc1)OC1CN2CCC1CC2 (stereo not given) the inhibition was inactive: -3.1%. In the case of COP1(=S)c2c(C)nn(CCC#N)c2N=C(c2ccc(F)cc2)N1C (stereo not given), the inhibition is reported as inactive: -7.7%. In the case of O=[N+]([O-])c1ccc(Nc2ccc(Oc3ccc([N+](=O)[O-])cc3[N+](=O)[O-])cc2)c([N+](=O)[O-])c1, the inhibition is reported as inactive: -1.4%. With O=P(Nc1ccccn1)(c1cccc2ccccc12)c1cccc2ccccc12 the inhibition was inactive: -1.3%. With Cc1cc(SC(NC=O)C(Cl)(Cl)Cl)ncn1 (stereo not given) the inhibition was inactive: 43%. For CCOC(=O)Nc1cccc([As](=O)(O)O)c1, the inhibition was inactive: -0.7%. With Cc1cc(SC(NC(=O)c2ccccc2)C(Cl)(Cl)Cl)nc(C(C)C)n1 (stereo not given) the inhibition was inactive: 20.8%. For CCOC(=O)Nc1ccc([As](=O)(O)O)c(O)c1, the inhibition was inactive: 2.8%. For O=[N+]([O-])c1cc([N+](=O)[O-])c(-c2ccn[nH]2)s1, the inhibition was inactive: 7.1%. CCN(CC)C(=S)SC(NC=O)C(Cl)(Cl)Cl (stereo not given) was tested, and the inhibition was inactive: 15.1%. For CC(C)NC(=O)NP(=O)(Oc1ccccc1)Oc1ccccc1, the inhibition was inactive: -1.2%. For CC(C)c1ccc(OP(=O)(Nc2ccccn2)Oc2ccccc2F)cc1 (stereo not given), the inhibition was inactive: -2.1%. For ClCCSc1nnc(-c2cccnc2)o1, the inhibition was inactive: -4.1%. In the case of Cc1ccc2nc3c(c(C)c2c1)CC(C(Cl)Cl)S3 (stereo not given), the inhibition is reported as inactive: 2.1%. With Cc1ccc(OP(=O)(Nc2ccc([N+](=O)[O-])cn2)Oc2ccc(C)cc2)cc1 the inhibition was inactive: 2.3%. For O=[As](O)(c1ccc(O)cc1)c1ccccc1O, the inhibition was inactive: 2.1%. In the case of C[As](=O)(O)c1cccc(C(=O)O)c1, the inhibition is reported as inactive: -5.3%. With COc1ccc(N/C(=N/P(=O)(N2CCOCC2)N2CCOCC2)N2CCOCC2)cc1 the inhibition was inactive: 8.1%. In the case of COc1cc(I)ccc1[As](=O)(O)O, the inhibition is reported as inactive: 0.5%. With COc1ccc2nc(NP(=O)(c3ccccc3)c3ccccc3)sc2c1 the inhibition was inactive: 2.3%. In the case of Cc1cc(=O)[nH]c(N[N+](=O)[O-])n1, the inhibition is reported as inactive: -3.6%. O=C(OC1CN2CCC1CC2)C12CC3CC(CC(C3)C1)C2 (stereo not given) was tested, and the inhibition was inactive: -5.3%. With Cc1c2c(nc3ccccc13)SC(C(Cl)Cl)C2 (stereo not given) the inhibition was inactive: 3%. For CCOP(=O)(Nc1cccc2ccccc12)OCC, the inhibition was inactive: 0.8%. With COc1cc(C2NCCC3(OCCO3)C2(C)C)cc(OC)c1OC (stereo not given) the inhibition was inactive: 2.4%. With CCCOP(=S)(Nc1nc(N)cc(=O)[nH]1)OCCC the inhibition was inactive: 0.4%. For Cc1ccc(NCCc2c([N+](=O)[O-])cc([N+](=O)[O-])cc2[N+](=O)[O-])cc1, the inhibition was inactive: -5.1%. With Nc1cccc2c([As](=O)(O)O)cccc12 the inhibition was inactive: -19.2%. In the case of O=[As](O)(c1cccc(O)c1)c1cccc(O)c1, the inhibition is reported as inactive: -1.7%. In the case of Cc1cccc(OCC(=O)OC2CN3CCC2CC3)c1 (stereo not given), the inhibition is reported as inactive: 1%. With COc1cc(C(=O)NCC2(N3CCOCC3)CCCCC2)cc(Cl)c1OC(C)C the inhibition was inactive: -0.6%. For O=[As](O)(O)c1cccnc1, the inhibition was inactive: 1.4%. O=C(OC1CN2CCC1CC2)c1ccc(Cl)cc1 (stereo not given) was tested, and the inhibition was inactive: -3.1%. In the case of O=[N+]([O-])c1ccc2c(c1)nnn2O, the inhibition is reported as inactive: -2.2%. With CN(C(=O)Cc1ccccc1)[C@@H]1CC[C@]2(CCCO2)C[C@H]1N1CCCC1 the inhibition was inactive: 0%. For CCOP1(=S)c2c(C)nn(CCC#N)c2N=C(c2ccc(F)cc2)N1C (stereo not given), the inhibition was inactive: -5%. For NC(=O)Nc1ccc([As](=O)(O)O)cc1, the inhibition was inactive: 0.7%. Nc1ccccc1[As](=O)(O)c1ccccc1 was tested, and the inhibition was inactive: -0.6%. With O=C(O)COc1ccc([As](=O)(O)O)cc1[N+](=O)[O-] the inhibition was inactive: -2.6%. In the case of CS(=O)(=O)c1cc([N+](=O)[O-])c2no[n+]([O-])c2c1, the inhibition is reported as inactive: -86.8%. In the case of O=P(Nc1nccs1)(c1ccccc1)c1nc2ccccc2s1 (stereo not given), the inhibition is reported as active: 64.7%. With O=P(Nc1nccs1)(Oc1ccccc1)Oc1ccccc1 the inhibition was inactive: -5.8%. CCOP1(=S)c2c(C)nn(CCC#N)c2N=C(c2ccccc2F)N1C (stereo not given) was tested, and the inhibition was inactive: 1.4%. In the case of O=P1(Nc2ccc(Br)cn2)COc2ccccc2OC1, the inhibition is reported as inactive: -2.6%. For Cc1ccc(OCC(=O)OC2CN3CCC2CC3)cc1 (stereo not given), the inhibition was inactive: 3.7%. O=[As](O)(c1cccs1)c1cccs1 was tested, and the inhibition was inactive: -3%. For Nc1cccc([As](=O)(O)c2ccccc2)c1, the inhibition was inactive: -2%. In the case of O=P1(Nc2ncccn2)COc2ccccc2OC1, the inhibition is reported as inactive: -1.8%. In the case of O=C(/C=C/c1ccccc1)OC1CN2CCC1CC2 (stereo not given), the inhibition is reported as inactive: 0.6%. For CN(C)C1(CNC(=O)c2ccc(S(C)(=O)=O)cc2)CCCCC1, the inhibition was inactive: -2.7%. CC1CCC(C(C)C)C(OP(=O)(Nc2ccccn2)c2ccccc2)C1 (stereo not given) was tested, and the inhibition was inactive: -0.6%. For Cc1nn(-c2ccccc2)c2c1P(=O)(N1CCOCC1)N(C)C(c1ccccc1)=N2 (stereo not given), the inhibition was inactive: 1.9%. With O=[As](O)(c1ccccc1Br)c1ccccc1Br the inhibition was inactive: -2.3%. CC(C)/C=N\N=C(\N)N[N+](=O)[O-] was tested, and the inhibition was inactive: -2.5%. With CN(C(=O)Cc1ccc(Cl)c(Cl)c1)[C@@H]1CCCC[C@H]1N1CCCC1 the inhibition was inactive: -0.4%. With CC(C)(C)C(=O)NC(Sc1ncccn1)C(Cl)(Cl)Cl (stereo not given) the inhibition was inactive: -2.8%. With Clc1n[nH]nc1-c1nn[nH][15n]1 the inhibition was inactive: -2.9%. In the case of CCOP(=O)(Nc1ccc(C)cn1)OCC, the inhibition is reported as inactive: 1.9%. In the case of O=P1(Nc2ccccn2)COc2ccccc2OC1, the inhibition is reported as inactive: 16.8%. c1nnnn1CCn1cnnn1 was tested, and the inhibition was inactive: 1.4%. CC(C)C(=O)NC(Sc1ccccc1)C(Cl)(Cl)Cl (stereo not given) was tested, and the inhibition was inactive: 1.8%. For O=P(Nc1nccs1)(c1ccccc1)c1ccccc1, the inhibition was inactive: 1.9%. Nc1ccc([As](=O)(O)c2ccc([N+](=O)[O-])cc2)cc1 was tested, and the inhibition was inactive: -2.1%. With C(Cc1nn[nH]n1)Cc1nn[nH]n1 the inhibition was inactive: -3.2%. With O=C(OC1CN2CCC1CC2)c1cccc(Cl)c1 (stereo not given) the inhibition was inactive: 1.5%. In the case of CC(=O)NC(SC(=S)N(C)C)C(Cl)(Cl)Cl (stereo not given), the inhibition is reported as inactive: -1%. O=[N+]([O-])c1ncn(CCn2cnc([N+](=O)[O-])n2)n1 was tested, and the inhibition was inactive: -0.5%. For O=[As](O)(c1ccccc1)c1ccc(O)cc1, the inhibition was inactive: 1.2%. C[C@H]1OP(=O)(Oc2ccccc2)[C@H](O)[C@H](O)[C@H]1N=[N+]=[N-] (stereo not given in full) was tested, and the inhibition was inactive: -3.8%. O=P(Nc1nc2ccccc2s1)(c1ccccc1)c1ccccc1 was tested, and the inhibition was inactive: -1.2%. With O=P(Nc1ccccn1)(c1ccc(Br)cc1)c1ccc(Br)cc1 the inhibition was inactive: -3.1%. For CN(C)C(=O)Oc1noc2ccccc12, the inhibition was inactive: -2.9%. O=c1c2cc([N+](=O)[O-])ccc2[nH]c2c([N+](=O)[O-])cc([N+](=O)[O-])cc12 was tested, and the inhibition was inactive: -9.3%. In the case of Cc1ccccc1OP(=O)(Nc1ccccn1)Oc1ccccc1C, the inhibition is reported as inactive: 1.4%. CC(=O)NC(SC(=S)N(CC(C)C)CC(C)C)C(Cl)(Cl)Cl (stereo not given) was tested, and the inhibition was inactive: 2.8%. Cc1ccc(OP(=O)(Nc2ccccn2)Oc2ccc(C)cc2)cc1 was tested, and the inhibition was inactive: 12.7%. In the case of COC(=O)c1cc2c(s1)N=C(c1ccccc1)N(C)P2(=O)N1CCOCC1 (stereo not given), the inhibition is reported as inactive: 0.2%. With CCC(=O)N1C2C3N(C(=O)CC)C1C1N(C(=O)CC)C(C(N1C(=O)CC)N3C(=O)CC)N2C(=O)CC the inhibition was inactive: 2.7%. CCNC(=S)/N=C(\N)N[N+](=O)[O-] was tested, and the inhibition was inactive: -0.2%. For O=C(NC1CCS(=O)(=O)C1)NP(=S)(Oc1ccccc1)Oc1ccccc1 (stereo not given), the inhibition was inactive: 1.8%. Cc1ccc(NP(=O)(Oc2cccc(C)c2)Oc2cccc(C)c2)nc1 was tested, and the inhibition was inactive: -7.3%. For CCOC(=O)NC(Sc1ccccc1)C(Cl)(Cl)Cl (stereo not given), the inhibition was inactive: 0.1%. c1ccc(-c2nn[nH]n2)c(-c2nn[nH]n2)c1 was tested, and the inhibition was inactive: -4.6%. For CC(=O)Nc1ccc(Oc2c([N+](=O)[O-])cc([N+](=O)[O-])cc2[N+](=O)[O-])cc1, the inhibition was inactive: 3.1%. For CC(=O)Nc1ccc([As](=O)(O)O)c(O)c1, the inhibition was inactive: -2.5%. With C[C@@H]1C=CCP(=O)(Oc2ccccc2)O1 (stereo not given in full) the inhibition was inactive: 0.6%. For C[C@H]1OP(=O)(Oc2ccccc2)C[C@@H]2O[C@@H]21 (stereo not given in full), the inhibition was inactive: 1.3%. For CC(C)(C)C(=O)NC(Sc1ccccc1)C(Cl)(Cl)Cl (stereo not given), the inhibition was inactive: -1.8%. For CCOc1ccc(C2=NCC(CBr)S2)cc1 (stereo not given), the inhibition was inactive: -0.2%. In the case of O=P1(Nc2nc3ccc(Cl)cc3s2)COc2ccccc2O1 (stereo not given), the inhibition is reported as inactive: 1.1%. For CC(C)CC(=O)NC(Sc1ccc(Cl)cc1)C(Cl)(Cl)Cl (stereo not given), the inhibition was inactive: -0.9%. Nc1cc(N)c2nonc2c1[N+](=O)[O-] was tested, and the inhibition was inactive: -9.2%. For Cc1c2non([O-])c-2c(C)[n+](=O)[n+]1[O-], the inhibition was inactive: 8.6%. For O=C(NC(Sc1ccncn1)C(Cl)(Cl)Cl)c1ccccc1 (stereo not given), the inhibition was inactive: -2.7%. For Oc1ccccc1CNc1ccccn1, the inhibition was inactive: -1.9%. Cc1ccc(OP(=O)(Nc2nccs2)Oc2ccc(C)cc2)cc1 was tested, and the inhibition was inactive: -0.6%. COc1ccccc1OP(=O)(Nc1ccc(C)cn1)Oc1ccccc1OC was tested, and the inhibition was inactive: 2.1%. With Clc1ccc(Cl)c(NC2=NCC(CBr)S2)c1 (stereo not given) the inhibition was inactive: 1.7%. For CN1CCCC(OC(=O)C(c2ccccc2)c2ccccc2)C1 (stereo not given), the inhibition was inactive: -2.4%. With NC(=O)c1cc([N+](=O)[O-])cc([N+](=O)[O-])c1N the inhibition was inactive: -5.6%. With Cc1ccc(N/C(=N/P(=O)(N2CCOCC2)N2CCOCC2)N2CCOCC2)cc1 the inhibition was inactive: -1.2%. CCN(N=Nc1nonc1N)c1nonc1N was tested, and the inhibition was inactive: 2.1%. For Nc1cccc2ccc([As](=O)(O)O)cc12, the inhibition was inactive: 4.1%.
